## Yeast mating assay 2: variants of the scFv Ab-91

Antigen: PDVDLGDISGINAS, a 14-residue peptide of the SARS-CoV-2 spike HR2 region.

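The starting antibody came from a phage panning campaign against this peptide. In library AAYL51, one, two or three CDR residues were substituted; doubles and triples were drawn at random. AlphaSeq pools MATa yeast showing the antibodies with MATalpha yeast showing the peptide. Binding brings cells together so that they mate, and sequencing counts the barcode pairs among the diploids. The ratio of observed to expected reads was calibrated, replicate by replicate, on BCL2-family standards whose Kd was known from biolayer interferometry. Each pool was mated in three replicate cultures.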

The variants keep the light chain, the linker and the frameworks of Ab-91 (scFv order VL, a 15-residue (Gly4Ser)3 linker, VH).
VL: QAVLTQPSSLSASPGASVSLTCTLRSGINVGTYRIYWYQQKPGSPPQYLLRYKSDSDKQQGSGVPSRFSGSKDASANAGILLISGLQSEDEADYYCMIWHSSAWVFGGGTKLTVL
VH: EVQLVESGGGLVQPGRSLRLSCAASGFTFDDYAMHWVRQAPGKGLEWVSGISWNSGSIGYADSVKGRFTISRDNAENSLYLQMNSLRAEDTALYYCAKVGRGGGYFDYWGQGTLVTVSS

The parent's heavy chain CDRs are GFTFDDYAMH, GISWNSGSIGYADSVK, VGRGGGYFDY; each variant's own CDRs replace them letter for letter.
Scale: log10 of Kd in nM, estimated from mating counts; low values are strong binders.
The mean shown is taken over the replicates in which the pair was detected.
An entry "no signal" has no value in the source: the pair was not observed among the diploids in any replicate. This suggests poor binding but is not conclusive.
The list is sorted by this average, lowest first, undetected variants last.
Three control strains display no target. For library AAYL51, 21% of the pairings with them gave a signal, with a median of 4.54 and one signal in twenty below 3.26, so weak values seen in few replicates may be background.

CDR-H1,CDR-H2,CDR-H3,"log10 Kd (nM), mean",seen in
GFTFDDYAMH,GISWNSLSVGYADSVK,VGRGGGYFGY,0.65,3/3
GFTFKDYAMH,GISPNSGSFGYADSVK,VGRGGGYFDY,0.97,3/3
GFTFDDYAMH,GISWNSGSIGYADSVK,VGGGGGYWAY,1.10,3/3
GFTFDKYAMH,GISQNSGSIGYADSVK,VGRGGGYFDD,1.87,3/3
GFTFDDYSMH,GISWNKGSIGYADSVK,VGEGGGYFDY,2.14,1/3
GFTFDDYAMH,GISWNSWSIGYAPPVK,VGRGGGYFDY,2.43,3/3
GFTFDDYAMH,EILWNSGNIGYADSVK,VGRGGGYFDY,2.56,1/3
GFTMDDYVMH,GISWNSGSVGYADSVK,VGRGGGYFDY,2.66,3/3
GFTFSDYAIH,GISWNSGGIGYADSVK,VGRGGGYFDY,2.72,3/3
GFTFDDYAMH,GISWDSFSIGYADSWK,VGRGGGYFDY,2.82,3/3
GFTFDDYAMH,GISWNSGSINYAKSYK,VGRGGGYFDY,2.96,1/3
GFTFDDYAMH,GISWNSGSIGIADSVK,VGTGGGYFDV,3.12,3/3
GFTEDDYAFH,GISWNKGSIGYADSVK,VGRGGGYFDY,3.25,1/3
HFTFDDAAMH,GISWNSGSIGYADTVK,VGRGGGYFDY,3.31,2/3
GFDFDDYAMH,GISWNSGSIGYADSVK,VGRGGGYMDR,3.39,3/3
GFTFDDYAMH,GISWMSGLIGYADSVK,VGRGGGYFQY,3.69,1/3
GFTFDDYAMH,GISWNSGSIGYADSVK,VGRLNTYFDY,3.72,1/3
GFTFDDYAMH,GIAWNSGSIGYADSVK,VGRGGGYFRY,3.77,1/3
GFTFDDYGMH,GISWNSGRIGYADSVC,VGRGGGYFDY,3.79,3/3
GFTFDDYAMH,GISWNSGSIGYAGSVK,VGMGKGYFDY,3.81,1/3
HFTFDDYAMH,GISWNSGSIGYADQVK,VGTGGGYFDY,3.96,1/3
GFTFYDYAMH,GISWNSGSIGRADSVK,VGRGGGYFDE,4.00,1/3
HKTFDDYAMH,GISWNSGSIGYADSVK,VGRGGGYFDY,4.26,1/3
GTTFDDYAMH,GISWNSGSVGDADSVK,VGRGGGYFDY,4.30,1/3
GFTFDDYAMH,MISWNSGVIGMADSVK,VGRGGGYFDY,4.36,1/3
GGTFDDYAMH,GISWNSGSIGYAISVK,VGRGGGYFDY,4.39,2/3
GQTFDDYAMH,IIPWNSGSIGYADSVK,VGRGGGYFDY,4.41,3/3
GFTFDLYAMH,GISWNSGSIGNADSVK,LGRGGGYFDY,4.44,1/3
GFTFDDYAMH,GISWNSGSIGYADGVK,DGRGGGYFDC,4.45,1/3
GFTFDDYAMH,GISWNSGSIGYADSVK,VGDPGGYFDA,4.47,2/3
GFTFDDYAMH,GISWNSGSIGIADSVK,VGRYGGYFCY,4.48,1/3
GFTFDDYPMY,GISWNSGSIGYADSVK,VGRGGGYTDY,4.51,2/3
GFIGDDYAMH,GTSWNSGSIGYADSVK,VGRGGGYFDY,4.67,2/3
GFTFDDYAMH,GISWNSGSINYPKSVK,VGRGGGYFDY,4.69,1/3
GFTFDDYAMG,GISWYSGSIGYVDSVK,VGRGGGYFDY,4.73,3/3
GFTFDDYAMH,GVSWNSGSIGYADSVK,TGRGGGYFDY,4.92,2/3
GFQFDDYAMH,GHSWNSGSIGYADSVK,GGRGGGYFDY,4.92,3/3
GFTFDIYAMH,GYSWNSGSIGYADSVK,VGRGGKYFDY,4.94,2/3
GFTFDDYASH,GSDWNSGSIGYADSVK,VGRGGGYFDY,5.01,1/3
GFTFVDYAMH,GISWNSGSIHYADSVK,VGRGGGYFDY,5.11,1/3
GFTFDDYAMH,GIPWNSGSIRYADSVK,VGRGGGYFDY,5.13,3/3
GFTDDDYAMH,GISWNSGSIGYADSVK,VGRELGYFDY,5.16,2/3
GFTFDDYAMH,GISWNSGQIGYADYVK,VGRGLGYFDY,5.27,1/3
GFTFDDYAMH,GISWNSGSIGYADSYK,VRRGTGYFDY,5.34,3/3
GFTFDCYAMH,GISWNSGSIGYAPSVK,VGRGGVYFDY,5.40,3/3
GFTFDDYAMH,GIMWNSGSIGYADSKK,VGRGGGDFDY,5.43,1/3
GFHFDDYAFH,GISWNSGSIGYAISVK,VGRGGGYFDY,5.62,2/3
GFTFLQYARH,GISWNSGSIGYADSVK,VGRGGGYFDY,5.66,1/3
GFTFDDYAMH,LISWNSGSIGYADSVK,VGRGGGYFDS,5.69,2/3
GFTFDDYAME,GISWNHGSIGYADSVK,VQRGGGYFDY,5.73,3/3
GMTFDDYAMH,GISWNSGSIGYADSNK,VGRNGGYFDY,no signal,0/3
GFTFDDYLMH,GISWNSGSIGYADSTK,VGRGGGMFDY,no signal,0/3
GFTFDDYAMH,RISWNSGSRGYADSVK,VGRGGGYFDY,no signal,0/3
GFTFDDYAMH,GRSWNNGSIGYATSVK,VGRGGGYFDY,no signal,0/3
GFTFDDYAFH,GISWNSGSLGYADSVK,DGRGGGYFDY,no signal,0/3
GFTFDDYADH,GISWNSGSTGYADIVK,VGRGGGYFDY,no signal,0/3
GFTFDFYAMH,GISWASGSIGYADSAK,VGRGGGYFDY,no signal,0/3
GFTFDDYASN,GISWNSGSIGYADSVK,VGRGGGYVDY,no signal,0/3
GFTFDDYAMH,GISWNSGPIGYADSVK,SGRGGGYRDY,no signal,0/3
PFTFDDYAMH,GFSWVSGSIGYADSVK,VGRGGGYFDY,no signal,0/3
GFWFDDYACH,GISWNSGSIGYADSQK,VGRGGGYFDY,no signal,0/3
GFTFDDQLMH,GISWNSGSIGYADSVK,VGRGGGYFDY,no signal,0/3
GFTFDDYAMH,GISWNSQSIWYADSVE,VGRGGGYFDY,no signal,0/3
GFFFDDYAMH,GISWNSGSIGYADSVK,GGRGGGYFDL,no signal,0/3
GFTFDMYAMH,GISWNSGSIGYATSVK,VGRGQGYFDY,no signal,0/3
GWTFDDYAMH,GISWNSGSIGYRDSVK,VGRGEGYFDY,no signal,0/3
GFTFVDYAMH,GISWNSGSIGYADSVK,VGYGGGYFDG,no signal,0/3
GFTFDHYAMH,GISWNSGSIGYADSVK,AGRYGGYFDY,no signal,0/3
GFLFDDSAMH,GISWFSGSIGYADSVK,VGRGGGYFDY,no signal,0/3
GFTFDDYAMI,WISWNSGSIGYADSVK,VGTGGGYFDY,no signal,0/3
GFTFWDYAME,GGSWNSGSIGYADSVK,VGRGGGYFDY,no signal,0/3
GFTFDDYHMH,GISWNSGSIGYAESAK,VGRGGGYFDY,no signal,0/3
GFTFDDYAMH,GISWNSGSIGYADSWK,VGRSGGYCDY,no signal,0/3
GFTYDDYEMH,GISWNSGSIGYADSVK,VGRGGTYFDY,no signal,0/3
GFTFDDCAMH,GISWNSGSIGYHDSVK,VGIGGGYFDY,no signal,0/3
GFTFDDYAMH,GESWNSGSIGYADSVK,VGRGGCYFDY,no signal,0/3
GFTFDDYAKH,GISWNSGSIGYADSVK,VGRGGYYFDP,no signal,0/3
GFYFDDYAMH,GISWNSGSIGYADSVK,VGRGQGYFDC,no signal,0/3

7 of these entries, quoted again:

CDR-H1,CDR-H2,CDR-H3,"log10 Kd (nM), mean",seen in
GFWFDDYACH,GISWNSGSIGYADSQK,VGRGGGYFDY,no signal,0/3
GFTFDDYAMH,RISWNSGSRGYADSVK,VGRGGGYFDY,no signal,0/3
GWTFDDYAMH,GISWNSGSIGYRDSVK,VGRGEGYFDY,no signal,0/3
GFTFDDYAMH,GISWNSLSVGYADSVK,VGRGGGYFGY,0.65,3/3
GFTFDCYAMH,GISWNSGSIGYAPSVK,VGRGGVYFDY,5.40,3/3
GFFFDDYAMH,GISWNSGSIGYADSVK,GGRGGGYFDL,no signal,0/3
GFTFDDYAMH,GISWDSFSIGYADSWK,VGRGGGYFDY,2.82,3/3

Source: Engelhart et al. 2022 (doi:10.1038/s41597-022-01779-4), MIT Lincoln Laboratory and A-Alpha Bio; data file from the FLAb repository.